The test relates to P. falciparum NF54 gametocytes. Format: cell-based, Plasmodium falciparum.

As to `CCOc1ccc2cc(-c3nn(CC4CCNCC4)c4ncnc(N)c34)ccc2c1` [Compound 29, 3-(6-ethoxynaphthalen-2-yl)-1-(piperidin-4-ylmethyl)-1H-pyrazolo[3,4-d]pyrimidin-4-amine], the “sporozoite load diminished relative to untreated controls” value (100 nM) is 86%. Besides, under “0.3 μM”, the “suppression of exflagellation events, repeat experiment” value is given as greater than 90%.

(Values after patent US10544104B2 (dated 2020).)
